Consider one compound from US9375443B2 (Signal Pharmaceuticals, LLC, priority 2012, dated 2016).

Each structure is given as a SMILES string. Bounds are passed on as bounds.

This assay concerns H1975. Nature of the assay: Proliferation Assays (NSCLC cell line sensitivity). In kind it is cell-based. Particulars: Homo sapiens, NCI-H1975, ACA, KRAS WT, EGFR L858R, T790M.

`C#Cc1cccc(Nc2ncnc3cc(OCCOC)c(OCCOC)cc23)c1` [Erlotinib, erlotinib] showed an IC50 of over 10 µM.

One may read the IC50 as the concentration that gives 50% inhibition. Higher therefore signals a need for much substance.
